Experimental data as given in PubChem BioAssay AID602281 (The Scripps Research Institute Molecular Screening Center, 2012).
The list shows a part of the results, in another mix than the full data. Calls of active or inactive are those of the source.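 Rule for the calls: active = inhibition above the mean inhibition across every tested compound plus 3 SD (cut at about 22% in these data); inactive = the rest.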

The chains behind the UniProt entries cited, without tags or fusion partners. Where a name states a change or a piece, a line headed by the entry shows the natural chain unless it says otherwise.
UniProt Q00G26: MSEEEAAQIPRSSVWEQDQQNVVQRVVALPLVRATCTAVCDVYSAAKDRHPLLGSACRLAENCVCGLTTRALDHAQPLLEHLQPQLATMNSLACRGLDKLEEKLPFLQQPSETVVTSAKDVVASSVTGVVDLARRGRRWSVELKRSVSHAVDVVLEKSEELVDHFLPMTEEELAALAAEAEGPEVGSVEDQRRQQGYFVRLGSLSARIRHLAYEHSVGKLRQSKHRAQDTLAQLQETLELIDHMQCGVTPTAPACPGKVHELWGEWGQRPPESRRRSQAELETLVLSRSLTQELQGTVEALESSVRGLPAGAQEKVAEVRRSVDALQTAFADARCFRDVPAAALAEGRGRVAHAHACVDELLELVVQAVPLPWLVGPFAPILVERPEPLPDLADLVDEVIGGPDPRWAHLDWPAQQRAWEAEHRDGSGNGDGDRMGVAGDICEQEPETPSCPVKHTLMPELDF
UniProt Q8WTS1: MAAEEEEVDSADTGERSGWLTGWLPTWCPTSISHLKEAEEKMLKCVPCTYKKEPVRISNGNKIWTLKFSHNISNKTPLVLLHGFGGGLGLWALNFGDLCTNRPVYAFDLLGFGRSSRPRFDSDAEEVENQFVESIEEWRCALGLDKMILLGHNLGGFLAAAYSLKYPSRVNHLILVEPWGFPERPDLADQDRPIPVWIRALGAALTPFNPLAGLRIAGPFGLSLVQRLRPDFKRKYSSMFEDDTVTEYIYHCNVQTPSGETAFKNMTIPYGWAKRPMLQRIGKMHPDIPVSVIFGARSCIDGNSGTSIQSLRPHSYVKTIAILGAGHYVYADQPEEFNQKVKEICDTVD

biological target: Perilipin-5 (Homo sapiens) + 1-acylglycerol-3-phosphate O-acyltransferase ABHD5 (Homo sapiens) (UniProt Q00G26+Q8WTS1); assay: blockers of ABHD5 binding to perilipin-5 – cell lysate, split luciferase complementation, luminescence, primary screen (AID 602281);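 note: 0% = DMSO only wells and the 100% control is not disclosed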; conditions: Split G. princeps luciferase complementation, 4 h, at 4 µM, hits give high values

Compound	inhibition
CC(C)c1ccc(OP(=O)(Nc2ccccn2)Oc2ccccc2F)cc1 (stereo unspecified)	inactive: 3.78%
COC(=O)C1(C)COP(=O)(N2CCCCCC2)OC1 (stereo unspecified)	inactive: 8.15%
ClCCSc1nnc(-c2cccnc2)o1	inactive: -0.2%
O=[N+]([O-])c1cc([N+](=O)[O-])c(-c2ccn[nH]2)s1	inactive: 2.96%
CCN(CC)C(=S)SC(NC=O)C(Cl)(Cl)Cl (stereo unspecified)	inactive: 6.52%
O=C(OC1CN2CCC1CC2)c1cccc2[nH]cnc12 (stereo unspecified)	inactive: -0.44%
CC(C)NC(=O)NP(=O)(Oc1ccccc1)Oc1ccccc1	inactive: -2.54%
CC1CCNP(=O)(N(CCCl)CCCl)O1 (stereo unspecified)	inactive: -1.71%
O=C(O)C(O)c1ccc(N(CCCl)CCCl)cc1 (stereo unspecified)	inactive: 4.18%
CCOC(=O)Nc1ccc([As](=O)(O)O)c(O)c1	inactive: 1.6%
Cc1cc(SC(NC(=O)c2ccccc2)C(Cl)(Cl)Cl)nc(C(C)C)n1 (stereo unspecified)	inactive: 9.92%
CCCCOc1ccc(C(=O)NCC2(N3CCCCC3)CCCCC2)cc1OC	inactive: 4.61%
COP(=O)(OC)N1CC1c1ccccc1 (stereo unspecified)	inactive: -6.34%
CCOC(=O)Nc1cccc([As](=O)(O)O)c1	inactive: 7.43%
O=[N+]([O-])c1ccc(Nc2ccc(Oc3ccc([N+](=O)[O-])cc3[N+](=O)[O-])cc2)c([N+](=O)[O-])c1	inactive: 1.33%
Cc1cc(SC(NC=O)C(Cl)(Cl)Cl)ncn1 (stereo unspecified)	inactive: 0.48%
O=P(Nc1ccccn1)(c1cccc2ccccc12)c1cccc2ccccc12	inactive: -4.08%
COC(=O)C1(C)COP(=O)(N2CCCC2)OC1 (stereo unspecified)	inactive: -9.3%
COP1(=S)c2c(C)nn(CCC#N)c2N=C(c2ccc(F)cc2)N1C (stereo unspecified)	inactive: 1.67%
O=C(Nc1ccncc1[N+](=O)[O-])c1ccc([N+](=O)[O-])cc1[N+](=O)[O-]	inactive: -3.31%
O=C(COc1ccccc1)OC1CN2CCC1CC2 (stereo unspecified)	inactive: 0.7%
O=C(O)C(=O)c1ccc(N(CCCl)CCCl)cc1	inactive: -1.7%
CCOC(=O)c1ccc(NC(=O)C(C)(CCl)SC)cc1 (stereo unspecified)	inactive: -6.23%

Compound	inhibition
CSc1ccc(Nc2c([N+](=O)[O-])cc([N+](=O)[O-])cc2[N+](=O)[O-])cc1	inactive: 2.79%
O=C(OC1CN2CCC1CC2)c1cccc([N+](=O)[O-])c1 (stereo unspecified)	inactive: 0.4%
CCC(C)N(CC(C)C)C(=S)SC(NC(C)=O)C(Cl)(Cl)Cl (stereo unspecified)	inactive: -6.13%
COc1ccc(C2=NCC(CBr)S2)cc1 (stereo unspecified)	inactive: -13.6%
CC(=O)N1C2C3N(C(C)=O)C1C1N(C(C)=O)C(C(N1C(C)=O)N3C(C)=O)N2C(C)=O	inactive: -3.03%
O=[N+]([O-])c1cccc2n[nH]nc12	inactive: -1.72%
O=[N+]([O-])c1cc([N+](=O)[O-])c(CCNc2ccccc2)c([N+](=O)[O-])c1	inactive: 2%
CCc1nc2c(n1)c1c(non1O)c1c2no[n+]1[O-]	inactive: -5.39%
Cc1ccc(NP(=O)(Oc2ccccc2)Oc2ccccc2)nc1	inactive: -5.55%
C[N+]1=C2C=CC=CC=C2SC12C([N+](=O)[O-])=CC([N+](=O)[O-])=C[C-]2[N+](=O)[O-] (stereo unspecified)	inactive: -15.4%
Nc1ccc([As](=O)(O)c2ccc(N)cc2)cc1	inactive: 11.8%
CCN(/C(=N/P(=O)(N1CCOCC1)N1CCOCC1)N1CCOCC1)c1ccc(OC)cc1	inactive: -3.49%
CN(C)C(=O)OCCc1n(C)cc[n+]1C	inactive: 1.95%
CC(C)=N/N=C(\N)N[N+](=O)[O-]	inactive: 4.31%
CC(C)c1nc(Nc2ccccc2)n(P(=O)(N(C)C)N(C)C)n1	inactive: 1.55%
c1cc(-c2nn[nH]n2)ccc1-c1nn[nH]n1	inactive: 2.77%
CC1CCN(C(=O)Oc2c(Cl)cc(Cl)c3cccnc23)CC1	inactive: -0.85%
O=P1(N(CCCl)CCCl)OCCCS1 (stereo unspecified)	inactive: -2.42%
O=C(Nc1cc([As](=O)(O)O)ccc1O)c1ccccc1	inactive: 2.84%
CC(C)(C)C(=O)NC(Sc1ccncn1)C(Cl)(Cl)Cl (stereo unspecified)	inactive: -1.27%
O=[N+]([O-])c1ncn(CCn2ncnc2[N+](=O)[O-])n1	inactive: -3.84%
O=[N+]([O-])c1cccc(NC2=NCC(CBr)S2)c1 (stereo unspecified)	inactive: -1.17%
COC(=O)C1(C)COP(=O)(Nc2ccccc2)OC1 (stereo unspecified)	inactive: -2.07%

Compound	inhibition
O=C(O)CNc1ccc([As](=O)(O)O)cc1	inactive: 1.18%
CCCC1OP(N)(=O)OCC1CC (stereo unspecified)	inactive: 1.39%
O=C(O)c1ccccc1[As](=O)(O)O	inactive: 0.49%
CC(=O)Nc1ccc([As](=O)(O)O)cc1	inactive: 7.74%
CN(C)P(=O)(N(C)C)n1c(Nc2ccccc2)nnc1-c1ccccc1	inactive: -0.06%
O=P(Nc1nc2ccc(Cl)cc2s1)(c1ccccc1)c1ccccc1	inactive: -3.81%
CN(C(=O)Cc1ccc(Cl)c(Cl)c1)[C@H]1CCCC[C@@H]1N1CCCC1	inactive: -8.81%
Cc1ccc(NP(=O)(Oc2ccccc2F)Oc2ccccc2F)nc1	inactive: -5.47%
CCOP(=O)(Nc1ccccc1)OCC	inactive: -6.3%
Cc1cc(SC(NC(=O)c2ccc(F)cc2)C(Cl)(Cl)Cl)ncn1 (stereo unspecified)	inactive: -7.5%
CCN(N=Nc1nonc1N)c1nonc1N	inactive: 3.64%
Nc1cccc2ccc([As](=O)(O)O)cc12	inactive: -13.7%
NC(=O)c1cc([N+](=O)[O-])cc([N+](=O)[O-])c1N	inactive: 2.67%
Cc1ccc(N/C(=N/P(=O)(N2CCOCC2)N2CCOCC2)N2CCOCC2)cc1	inactive: -1.94%
CN(C(=O)Cc1ccc(Cl)c(Cl)c1)[C@H]1CCCC[C@H]1N1CCCC1	inactive: 9.41%
Cc1ccc(OP(=O)(Nc2nccs2)Oc2ccc(C)cc2)cc1	inactive: -0.41%
COc1ccccc1OP(=O)(Nc1ccc(C)cn1)Oc1ccccc1OC	inactive: -6.36%
Clc1ccc(Cl)c(NC2=NCC(CBr)S2)c1 (stereo unspecified)	inactive: -6.52%
CN1CCCC(OC(=O)C(c2ccccc2)c2ccccc2)C1 (stereo unspecified)	inactive: 3.69%
CC(C)CC(=O)NC(Sc1ccc(Cl)cc1)C(Cl)(Cl)Cl (stereo unspecified)	inactive: -4.76%
Nc1cc(N)c2nonc2c1[N+](=O)[O-]	inactive: -8.75%
O=C(NC(Sc1ccncn1)C(Cl)(Cl)Cl)c1ccccc1 (stereo unspecified)	inactive: -9.06%
Oc1ccccc1CNc1ccccn1	inactive: 3.28%

Compound	inhibition
O=[N+]([O-])C1C(O)C(O)C([N+](=O)[O-])C(O)C1O (stereo unspecified)	inactive: -6.86%
CCOc1ccc(C2=NCC(CBr)S2)cc1 (stereo unspecified)	inactive: -9.91%
O=P1(Nc2nc3ccc(Cl)cc3s2)COc2ccccc2O1 (stereo unspecified)	inactive: -1.32%
CCc1cc(O)c([N+](=O)[O-])c(C)c1[N+](=O)[O-]	inactive: 1.65%
CC(C)(C)C(=O)NC(Sc1ccccc1)C(Cl)(Cl)Cl (stereo unspecified)	inactive: -0.67%
COC(=O)C1(C)COP(=O)(NCc2ccccc2)OC1 (stereo unspecified)	inactive: -5.75%
N#C/C(=C\c1ccc(N(CCBr)CCBr)cc1)C(N)=O	inactive: -2.8%
CC(=O)c1ccc(N2CC2c2ccncc2)cc1 (stereo unspecified)	inactive: -3.79%
C[C@H]1OP(=O)(Oc2ccccc2)C[C@@H]2O[C@@H]21 (stereo partly specified)	inactive: 6.28%
Cc1ccccc1CN(C)C(=O)COC(=O)C(O)(c1ccccc1)c1ccccc1	inactive: -11.7%
CC(=O)Nc1ccc(Oc2c([N+](=O)[O-])cc([N+](=O)[O-])cc2[N+](=O)[O-])cc1	inactive: 1.26%
CC(=O)Nc1ccc([As](=O)(O)O)c(O)c1	inactive: 5.35%
O=C(NC1CCS(=O)(=O)C1)NP(=S)(Oc1ccccc1)Oc1ccccc1 (stereo unspecified)	inactive: -10.1%
CCNC(=S)/N=C(\N)N[N+](=O)[O-]	inactive: -7.83%
Cc1ccc(NP(=O)(Oc2cccc(C)c2)Oc2cccc(C)c2)nc1	inactive: -2.86%
c1ccc(-c2nn[nH]n2)c(-c2nn[nH]n2)c1	inactive: 0.11%
O=P1(N(CCCl)CCCl)OCCC2CCCCN21 (stereo unspecified)	inactive: -6.7%
CC(=O)NC(SC(=S)N(CC(C)C)CC(C)C)C(Cl)(Cl)Cl (stereo unspecified)	inactive: -2.37%
Cc1ccc(OP(=O)(Nc2ccccn2)Oc2ccc(C)cc2)cc1	inactive: 0.93%
COC(=O)c1cc2c(s1)N=C(c1ccccc1)N(C)P2(=O)N1CCOCC1 (stereo unspecified)	inactive: -0.42%
CCC(=O)N1C2C3N(C(=O)CC)C1C1N(C(=O)CC)C(C(N1C(=O)CC)N3C(=O)CC)N2C(=O)CC	inactive: -0.3%
O=C(OC1CN2CCC1CC2)c1ccccc1 (stereo unspecified)	inactive: -7.34%
CN(C)C(=O)Oc1noc2ccccc12	inactive: -5.73%

Compound	inhibition
O=c1c2cc([N+](=O)[O-])ccc2[nH]c2c([N+](=O)[O-])cc([N+](=O)[O-])cc12	inactive: -9.45%
Cc1ccccc1OP(=O)(Nc1ccccn1)Oc1ccccc1C	inactive: -1.65%
CC(NC(=O)COC(=O)C(O)(c1ccccc1)c1ccccc1)c1ccccc1 (stereo unspecified)	inactive: 2.92%
Nc1ccc(CCCCOc2ccccc2)cc1	inactive: 0.93%
COc1ccc(N)c([N+](=O)[O-])c1[N+](=O)[O-]	inactive: 9.54%
CN(C)C1(CNC(=O)c2ccc(Cl)c(S(N)(=O)=O)c2)CCCCC1	inactive: -0.51%
O=P(Nc1ccccn1)(c1ccc(Br)cc1)c1ccc(Br)cc1	inactive: -3.58%
C[C@H]1OP(=O)(Oc2ccccc2)[C@H](O)[C@H](O)[C@H]1N=[N+]=[N-] (stereo partly specified)	inactive: -3.47%
O=P(Nc1nc2ccccc2s1)(c1ccccc1)c1ccccc1	inactive: -8.39%
CC(=O)NC(SC(=S)N(C)C)C(Cl)(Cl)Cl (stereo unspecified)	inactive: 4.29%
O=[N+]([O-])c1ncn(CCn2cnc([N+](=O)[O-])n2)n1	inactive: 2.29%
O=[N+]([O-])c1ccc(O)c(/C=N/Nc2ccc([N+](=O)[O-])cc2[N+](=O)[O-])c1	inactive: 1.87%
O=[As](O)(c1ccccc1)c1ccc(O)cc1	inactive: -1.31%
Nc1ccc([As](=O)(O)c2ccc([N+](=O)[O-])cc2)cc1	inactive: 2.58%
C(Cc1nn[nH]n1)Cc1nn[nH]n1	inactive: 0%
O=C(OC1CN2CCC1CC2)c1cccc(Cl)c1 (stereo unspecified)	inactive: -2.1%
O=P(Nc1nccs1)(c1ccccc1)c1ccccc1	inactive: -3%
CC(C)C(=O)NC(Sc1ccccc1)C(Cl)(Cl)Cl (stereo unspecified)	inactive: -2.92%
c1nnnn1CCn1cnnn1	inactive: 2.5%
